Patent publication US10710986B2, “PD-1/PD-L1 inhibitors” (Gilead Sciences, Inc., priority 2018, dated 2020)
Where two headings read alike, the source gives them in different places.

Details: all doses, entire study

For `COc1nc(-c2cccc(-c3cccc(-c4cnc(CNC[C@@H]5CCC(=O)N5)c(OC)n4)c3Cl)c2Cl)cnc1CNC[C@@H]1CCC(=O)N1` [compound 139], the “tolerability, effect on body weight” value (listed as Compound 139) was “well tolerated” and the “tolerability, effect on body weight” value (listed as compound 139) was “well-tolerated”.
